Assay [1] concerns the target Fatty-acid amide hydrolase 1 (Rattus norvegicus) (UniProt P97612). The assay is described as follows: Inhibition of rat FAAH assessed as recovery of enzyme activity at IC80 concentration after 18 hrs at 4 degC by dialysis.
The target is the same in assay [2]. The assay is described as follows: Inhibition of rat FAAH assessed as recovery of enzyme activity at IC80 concentration after 18 hrs at 22 degC by dialysis.

Sequences of proteins named here, by UniProt entry; tags and fusion partners are left off.
UniProt P97612, whole entry: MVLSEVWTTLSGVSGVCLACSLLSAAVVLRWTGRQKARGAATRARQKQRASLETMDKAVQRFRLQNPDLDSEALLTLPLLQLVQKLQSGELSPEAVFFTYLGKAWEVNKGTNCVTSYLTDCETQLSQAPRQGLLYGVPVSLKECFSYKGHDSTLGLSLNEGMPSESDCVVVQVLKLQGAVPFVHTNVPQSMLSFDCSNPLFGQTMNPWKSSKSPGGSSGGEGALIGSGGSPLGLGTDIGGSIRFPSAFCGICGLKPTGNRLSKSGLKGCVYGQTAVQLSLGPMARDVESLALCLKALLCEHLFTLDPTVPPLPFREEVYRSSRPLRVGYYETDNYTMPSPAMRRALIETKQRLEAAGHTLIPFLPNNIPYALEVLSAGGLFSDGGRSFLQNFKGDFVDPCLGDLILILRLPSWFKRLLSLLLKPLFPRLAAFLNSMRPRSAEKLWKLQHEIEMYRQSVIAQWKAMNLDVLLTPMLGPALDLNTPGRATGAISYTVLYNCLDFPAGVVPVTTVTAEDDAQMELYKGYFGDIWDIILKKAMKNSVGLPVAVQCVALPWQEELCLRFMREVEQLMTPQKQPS

Molecules are shown by their SMILES. Activity calls are given as the source filed them. The rule behind the calls is not given here.

As for `O=C(CCCCCCc1ccccc1)c1ncc(-c2ccccn2)o1`, the result in assay [1] and in assay [2] was inactive.

The values are drawn from ChEMBL document CHEMBL1139400, “Thiadiazolopiperazinyl ureas as inhibitors of fatty acid amide hydrolase” (Bioorg Med Chem Lett, 2008).
